In PMC3618488 (Chemical communications (Cambridge, England), 2013) one finds IC50 data, which are given here for 1 substance.

The chains behind the UniProt entries cited, without tags or fusion partners. Residues count along the entry.
UniProt P14756, 198-498: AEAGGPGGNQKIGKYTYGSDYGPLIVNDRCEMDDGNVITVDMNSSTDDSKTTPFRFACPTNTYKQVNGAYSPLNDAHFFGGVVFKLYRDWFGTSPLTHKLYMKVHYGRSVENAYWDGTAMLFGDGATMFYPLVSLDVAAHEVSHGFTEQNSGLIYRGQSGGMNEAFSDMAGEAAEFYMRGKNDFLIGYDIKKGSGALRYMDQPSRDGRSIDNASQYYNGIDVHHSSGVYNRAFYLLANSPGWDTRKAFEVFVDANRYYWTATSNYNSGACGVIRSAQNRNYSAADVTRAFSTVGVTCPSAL

For this experiment, the target named is Pseudomonas aeruginosa elastase (LasB) (Pseudomonas aeruginosa, UniProt P14756). In kind it is biochemical. Conditions: read-out: IC50 for LasB inhibition.

As for acetyltropolone [compound 4], the IC50 was 1.29 ± 0.24 mM.
